Patent US7947275B2 (Signe Biopharma, Inc., priority 2000, dated 2011)

Amino acid sequences for entries named in this document (tags omitted).
UniProt P06211, whole entry: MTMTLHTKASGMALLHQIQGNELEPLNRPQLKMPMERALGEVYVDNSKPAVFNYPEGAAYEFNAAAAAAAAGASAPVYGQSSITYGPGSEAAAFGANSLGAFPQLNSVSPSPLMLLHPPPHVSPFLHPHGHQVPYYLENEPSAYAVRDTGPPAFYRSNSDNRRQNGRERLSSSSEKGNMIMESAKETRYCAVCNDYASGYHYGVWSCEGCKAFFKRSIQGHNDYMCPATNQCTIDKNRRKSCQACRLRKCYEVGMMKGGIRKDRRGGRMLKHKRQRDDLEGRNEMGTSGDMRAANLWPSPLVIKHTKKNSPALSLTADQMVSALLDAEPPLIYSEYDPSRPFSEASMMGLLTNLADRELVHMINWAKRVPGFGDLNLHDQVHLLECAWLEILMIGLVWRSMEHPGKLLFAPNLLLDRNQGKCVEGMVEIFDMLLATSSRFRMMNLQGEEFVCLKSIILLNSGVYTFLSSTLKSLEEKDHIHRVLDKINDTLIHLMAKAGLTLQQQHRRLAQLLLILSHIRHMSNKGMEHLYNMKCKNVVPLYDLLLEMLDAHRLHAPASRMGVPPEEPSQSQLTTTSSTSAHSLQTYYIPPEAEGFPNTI

Target: estrogen receptors of MTW9/PL2 cells (Rattus norvegicus, UniProt P06211)
Assay: ^3H-E2 binding to MTW9/PL2 cells
Details: 5 nM ^3H-E2, 37° C., 1000-fold excess of unlabeled steroid

**Q.** With `C[C@]12CC[C@H]3[C@@H](CCC4=CC(=O)CC[C@@]43C)[C@@H]1CC[C@@H]2O` [T, Testosterone] as the compound, how does the “reduction of ^3H-E2 total binding by unlabeled steroid” value read?
**A.** Its value is 15%.
